## Binding of CDR-mutated scFvs to a peptide of the spike HR2 region

Data: MIT Lincoln Laboratory AlphaSeq set, Li et al. 2023, doi:10.1038/s41467-023-39022-2, as distributed in FLAb.

Antigen: PDVDLGDISGINAS, a 14-residue peptide of the SARS-CoV-2 spike HR2 region.

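These sequences belong to a second round, designed from the earlier measurements on random variants of the parent. Their group label is 14H_En_HC (En: ensemble of fine-tuned language models; HC: hill climbing; a sequence that several methods proposed may carry one label only). In AlphaSeq, yeast of one mating type display the scFv and yeast of the other type display the target. Pairs that bind mate more often; barcode pairs of the diploids are counted by sequencing. Read counts were normalised to the haploid input and turned into Kd by a linear fit to BCL2-family pairs of known affinity, for each replicate. The assay was run in six technical replicates.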

Ab-14 is the parent antibody, in scFv form: VH, then a 15-residue (Gly4Ser)3 linker, then VL. The light chain is unchanged in all variants.
VH: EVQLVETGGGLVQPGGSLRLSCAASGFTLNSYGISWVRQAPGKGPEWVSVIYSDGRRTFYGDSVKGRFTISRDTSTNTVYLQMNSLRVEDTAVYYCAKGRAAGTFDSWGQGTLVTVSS
VL: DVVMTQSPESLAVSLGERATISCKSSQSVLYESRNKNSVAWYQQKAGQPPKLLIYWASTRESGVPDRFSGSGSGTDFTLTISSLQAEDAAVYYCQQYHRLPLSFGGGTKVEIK

Variants are written as CDR1, CDR2 and CDR3 of the heavy chain (limits as in the source). Parent: GFTLNSYGIS, VIYSDGRRTFYGDSVK, GRAAGTFDS. Affinities are written as log10 Kd with Kd in nM; a lower number is a better binder. An entry "nd" has no value in the source: the pair was not observed among the diploids in that replicate. This suggests poor binding but is not conclusive. Background: pairings of all heavy chain designs with three empty control strains gave a value in 1% of cases (median 2.08, 5th percentile 0.84). Values in that range, when seen in few replicates, are hard to tell from nonspecific mating. Also given: how often the same scFv was detected with the empty control strains, with their mean in brackets. Values of this round are not directly comparable with the first-round values of the same sequences. The authors averaged sequences with at least three values out of six and counted those with two or fewer as poor binders. Of ten entries with the parent sequence, four were seen in most replicates (averages 0.34 to 2.37), three in one and three in none, so single entries are noisy.

| CDR-H1 | CDR-H2 | CDR-H3 | replicates, log10 nM | control signals |
|---|---|---|---|---|
| GFDLNEYGIS | VIYADGVRTFYIDSVK | GEIAGTFNV | -0.06 / -0.46 / -0.14 / -0.67 / -0.25 / 0.32 | 0 of 18 |
| GFDLNEYGIS | VIYADGRRTFYADSVK | GQQAGTFDM | -0.76 / -0.55 / -0.22 / -0.77 / -0.71 / -0.69 | 0 of 18 |
| GFDLNEYGIS | VIYADGRRTFYADSVK | GNYAGTFDS | -0.46 / -0.14 / -0.33 / -0.36 / -0.23 / -0.31 | 1 of 18 (2.42) |
| GFDLNEYGIS | VIYADGVRTFYADNVK | GEVAGTFDV | 0.20 / -0.25 / 0.09 / -0.41 / 0.40 / 0.89 | 0 of 18 |
| GFDLNEYGIS | VIYADGRRTFYADSVK | GSNGGTFDV | 0.08 / -0.05 / -0.09 / -0.46 / -0.21 / -0.26 | 0 of 18 |
| GFNLNEYGIS | VIYADGRRTFYADSVK | GEIAGTFDQ | 0.21 / -0.32 / -0.40 / -0.33 / -0.64 / -0.13 | 0 of 18 |
| GFNLNEYGIS | VIYADGMRTFYTDDVK | GEVAGTFDL | 1.05 / -0.01 / 0.27 / 0.14 / -0.30 / 0.38 | 0 of 18 |
| GFDLDEYGIS | VIYADGRRTFYQDSVK | GNNAGTFDQ | 0.11 / 0.21 / -0.57 / -0.56 / -0.42 / -0.08 | 0 of 18 |
| GFDLNEYGIS | VIYADGRRTAYADSVK | GQVAGTFDE | 0.74 / 1.84 / 0.23 / 0.88 / 0.49 / 0.95 | 0 of 18 |
| GFDLNEYGIS | VIYADGRRTFYKDSVK | GNAGGTFDV | -0.04 / -0.59 / 0.04 / 0.12 / -0.39 / 0.02 | 0 of 18 |
| GFDLNEYGIS | VIYADGMRTFYTDSVK | GEIAGTFDS | -0.40 / -0.42 / -0.67 / -0.77 / 0.15 / -0.25 | 0 of 18 |
| GFNLNEYGIS | VIYADGMRTFYTDSVK | GETAGTFVN | 0.30 / -0.32 / 0.03 / -0.06 / -0.60 / 0.08 | 0 of 18 |
| GFDLNEYGIS | VIYADGMRTFYTDSVK | GTFAGTFDV | -0.63 / -0.67 / -0.62 / -0.77 / -0.73 / -0.64 | 2 of 18 (3.19) |
| GFDLEDYGIS | VIYADGMRTFYADSVK | GEIAGTFDL | -0.20 / 1.38 / -0.48 / -0.04 / 0.38 / -0.34 | 0 of 18 |
| GFDLNEYGIS | VIYADGVRTFYADSVK | GQNAGTFDQ | -0.57 / -0.23 / -0.28 / -0.75 / -0.59 / -0.05 | 1 of 18 (1.99) |
| GFDLDEYGIS | VIYADGRRTFYIDSVK | GETAGTFDE | 0.34 / 0.74 / -0.12 / 0.51 / 1.10 / nd | 0 of 18 |
| GFDLNEYGIS | VIYADGLRTFYADSVK | GQNAGTFDQ | -0.41 / -0.22 / -0.52 / -0.48 / -0.63 / -0.13 | 0 of 18 |
| GFDLDEYGIS | VIYADGRRTFYADSVK | GENAGTFDA | -0.33 / -0.15 / -0.28 / -0.56 / -0.76 / -0.13 | 0 of 18 |
| GFDIDEYGIS | VIYADGRRTFYADSVK | GNNAGTFDS | -0.26 / -0.24 / -0.45 / -0.73 / -0.40 / -0.35 | 0 of 18 |
| GFDLNEYGIS | VIYADGVRTFYADSVK | GEIAGTFDF | -0.54 / -0.25 / -1.22 / -0.19 / -0.38 / -0.45 | 0 of 18 |
| GFDLNEYGIS | VIYADGMRTFYADSVK | GQLAGTFDS | -0.04 / -0.26 / -0.44 / -0.54 / -0.59 / -0.34 | 0 of 18 |
| GFDLNEYGIS | VIYADGMRTFYADSVK | GNNAGTFDS | 0.00 / -1.09 / -0.31 / -1.25 / -0.52 / 0.40 | 2 of 18 (0.80) |
| GFDLNEYGIS | VIYADGRRTFYSDSVK | GTTGGTFDM | -0.34 / -0.51 / -0.25 / -0.14 / -0.25 / 0.02 | 0 of 18 |
| GFDINEYGIS | VIYADGKRTAYADSVK | GENAGTFDV | 0.22 / -0.07 / 0.24 / -0.24 / -0.41 / -0.18 | 0 of 18 |
| GFDIDEYGIS | VIYADGRRTAYADSVK | GTNAGTFDS | 0.05 / 0.07 / 0.29 / -0.30 / -0.11 / -0.11 | 0 of 18 |
| GFDLNEYGIS | VIYADGSRTFYADSVK | GEAAGTFDI | -0.20 / 0.33 / -0.22 / 0.15 / 1.51 / 0.20 | 0 of 18 |
| GFNLNEYGIS | VIYADGRRTAYADSVK | GEVAGTFDV | -0.59 / 0.53 / -0.19 / -0.40 / 0.77 / 0.56 | 0 of 18 |
| GFDLNEYGIS | VIYADGRRTAYIDSVK | GEQAGTFDL | -0.31 / -0.67 / -0.57 / -0.46 / -0.64 / -0.20 | 0 of 18 |
| GFSLDEYGIS | VIYADGVRTFYADSVK | GNVAGTFDV | -0.14 / -0.42 / -0.31 / -0.47 / -0.88 / -0.20 | 0 of 18 |
| GFDLNEYGIS | VIYADGRRTGYIDSVK | GENAGTFDV | -0.48 / -0.30 / -0.74 / -0.33 / -0.33 / 0.28 | 0 of 18 |
| GFNLDEYGIS | VIYADGKRTFYQDSVK | GEVAGTFDV | nd / -0.88 / -0.01 / 0.08 / -0.47 / 0.37 | 1 of 18 (0.19) |
| GFQLDEYGIS | VIYADGRRTFYSDSVK | GEVAGTFDV | 0.32 / -0.13 / -0.25 / 0.12 / -0.03 / -0.12 | 0 of 18 |
| GFDLNEYGIS | VIYADGKRTQYIDSVK | GEAAGTFDS | -0.17 / -0.26 / -0.25 / -0.25 / -0.42 / -0.09 | 0 of 18 |
| GFNLDEYGIS | VIYADGRRTFYQDSVK | GEIAGTFDF | -0.07 / -0.13 / -0.32 / -0.32 / -0.21 / -0.24 | 2 of 18 (1.86) |
| GFDLNEYGIS | VIYADGRRTFYSDSVK | GQLAGTFDM | -0.40 / -0.35 / -0.46 / -0.61 / -0.62 / -0.16 | 0 of 18 |
| GFDLNEYGIS | VIYADGMRTAYADSVK | GEAAGTFDS | -1.77 / -0.67 / -1.18 / nd / -1.64 / -2.28 | 1 of 18 (-1.53) |
| GFDINEYGIS | VIYADGKRTAYADSVK | GEAAGTFDV | nd / 0.19 / 0.28 / nd / -0.16 / nd | 0 of 18 |
| GFDLESYGIS | VIYADGSRTAYADSVK | GNVAGTFDK | -0.57 / -0.48 / -0.40 / -0.43 / -0.60 / -0.66 | 0 of 18 |
| GFNLNEYGIS | VIYADGRRTFYADSVK | GQIAGTFDS | -0.41 / -0.50 / -0.49 / -1.00 / -0.58 / -0.51 | 0 of 18 |
| GFDLNEYGIS | VIYADGRRTFYADSVK | GQGAGTFDL | -0.12 / -0.16 / -0.39 / -0.30 / -0.26 / -0.26 | 0 of 18 |
| GFDLNEYGIS | VIYADGQRTFYADSVK | GQVAGTFDM | -0.56 / -0.50 / -0.60 / -0.94 / -0.85 / -0.65 | 0 of 18 |
| GFNLEDYGIS | VIYADGRRTFYADSVK | GNVAGTFDV | -0.31 / -0.42 / -0.58 / -0.52 / -0.50 / -0.26 | 0 of 18 |
| GFDLNEYGIS | VIYADGSRTFYSDSVK | GQVAGTFDV | 1.60 / 1.38 / 3.46 / 1.58 / 1.75 / 1.42 | 1 of 18 (2.27) |
| GFNLNEYGIS | VIYADGRRTFYSDSVK | GEVAGTFDV | -0.74 / -0.26 / -0.76 / -0.51 / -0.69 / -0.59 | 1 of 18 (3.58) |
| GFNLNEYGIS | VIYADGRRKFYADSVK | GNTAGTFDV | -0.71 / -1.11 / -0.55 / -1.21 / 0.25 / -0.27 | 0 of 18 |
| GFDLNEYGIS | VIYADGRRTAYSDSVK | GGNAGFFDT | nd / nd / nd / nd / nd / nd | 1 of 18 (1.04) |
| GFDLSEYGIS | VIYADGRRTFYADSVK | GEVAGTFDV | -0.61 / -0.51 / -0.69 / -0.41 / -0.30 / -0.39 | 1 of 18 (1.31) |
| GFKLDEYGIS | VIYADGRRTFYADSVK | GNVAGTFDQ | -0.62 / -0.63 / -0.85 / -1.06 / -0.70 / -0.51 | 0 of 18 |
| GFDLNEYGIS | VIYADGQRTFYADSVK | GTNGGTFDV | -0.12 / 0.30 / -0.56 / 0.13 / 0.15 / -0.29 | 0 of 18 |
| GFDLNEYGIS | VIYADGHRTFYSDSVK | GQSAGTFDM | 0.20 / -0.05 / 0.06 / -0.19 / -0.02 / 0.28 | 1 of 18 (1.62) |
| GFDLNEYGIS | VIYADGRRTFYVDSVK | GQVAGIFDV | nd / nd / nd / 2.31 / nd / nd | 1 of 18 (2.54) |

Extract of 4 entries:

| CDR-H1 | CDR-H2 | CDR-H3 | replicates, log10 nM | control signals |
|---|---|---|---|---|
| GFDLNEYGIS | VIYADGMRTFYTDSVK | GEIAGTFDS | -0.40 / -0.42 / -0.67 / -0.77 / 0.15 / -0.25 | 0 of 18 |
| GFNLNEYGIS | VIYADGMRTFYTDSVK | GETAGTFVN | 0.30 / -0.32 / 0.03 / -0.06 / -0.60 / 0.08 | 0 of 18 |
| GFSLDEYGIS | VIYADGVRTFYADSVK | GNVAGTFDV | -0.14 / -0.42 / -0.31 / -0.47 / -0.88 / -0.20 | 0 of 18 |
| GFDIDEYGIS | VIYADGRRTFYADSVK | GNNAGTFDS | -0.26 / -0.24 / -0.45 / -0.73 / -0.40 / -0.35 | 0 of 18 |